According to patent US20070276025A1, “Indirubin-Type Compounds, Compositions, and Methods for Their Use” (priority 2003, published 2007):
Where two headings read alike, the source gives them in different places. Each block holds one compound with its values, some of them ahead of it.

The chains behind the UniProt entries cited, without tags or fusion partners.
UniProt Q00535, whole entry, species assumed: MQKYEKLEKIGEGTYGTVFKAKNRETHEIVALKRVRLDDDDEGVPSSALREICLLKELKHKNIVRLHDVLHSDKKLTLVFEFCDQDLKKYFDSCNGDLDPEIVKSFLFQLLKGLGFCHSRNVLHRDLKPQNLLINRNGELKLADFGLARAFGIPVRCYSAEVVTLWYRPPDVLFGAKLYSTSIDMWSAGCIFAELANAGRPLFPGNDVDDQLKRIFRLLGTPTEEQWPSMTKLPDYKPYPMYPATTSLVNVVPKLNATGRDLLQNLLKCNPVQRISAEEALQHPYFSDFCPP

Tests used:
[1] = molecular target: GSK-3α/β; test: GSK-3α/β kinase assay (GS-1 peptide, 15 μM ATP); type: biochemical, porcine
[2] = molecular target: CDK5/p25 (Homo sapiens, UniProt Q00535); test: CDK5/p25 kinase assay (histone H1, 15 μM ATP); type: biochemical, mammalian
[3] = molecular target: CDK1/cyclin B; test: CDK1/cyclin B kinase assay (histone H1, 15 μM ATP); type: biochemical, starfish (Marthasterias glacialis); settings: Table 5

Compound: 6-Chloroindirubin [5d]
IC50 ([1]; Table 4, read-out: IC50 GSK-3): 140 nM | IC50 ([1]; Table 5, read-out: IC50 GSK-3α/β): 140 nM | IC50 ([1]; Table 7, GSK-3, read-out: IC50exp): 140 nM

Compound: O=C1Nc2ccccc2/C1=C1/Nc2ccccc2C1=O [5h, indirubin]
IC50 ([2]; Table 1): 10000 nM | IC50 ([2]; Table 5): 10000 nM

IC50 [3]: 1200 nM
Compound: C=Cc1ccc2c(c1)NC(=O)C2=C1Nc2ccccc2C1=NO [7i, 6-Vinylindirubin-3′-oxime]
